Data as given in PubChem BioAssay (EPA / NIEHS).
This is a selection; strong and weak results do not stand in their true shares. Calls of active or inactive are those of the source. The calls were made as follows: active = hit-call score of the fitted dose curve at least 0.9, where 1 is the maximum; inactive = score below 0.9.

The chains behind the UniProt entries cited, without tags or fusion partners.
UniProt P10242, whole entry: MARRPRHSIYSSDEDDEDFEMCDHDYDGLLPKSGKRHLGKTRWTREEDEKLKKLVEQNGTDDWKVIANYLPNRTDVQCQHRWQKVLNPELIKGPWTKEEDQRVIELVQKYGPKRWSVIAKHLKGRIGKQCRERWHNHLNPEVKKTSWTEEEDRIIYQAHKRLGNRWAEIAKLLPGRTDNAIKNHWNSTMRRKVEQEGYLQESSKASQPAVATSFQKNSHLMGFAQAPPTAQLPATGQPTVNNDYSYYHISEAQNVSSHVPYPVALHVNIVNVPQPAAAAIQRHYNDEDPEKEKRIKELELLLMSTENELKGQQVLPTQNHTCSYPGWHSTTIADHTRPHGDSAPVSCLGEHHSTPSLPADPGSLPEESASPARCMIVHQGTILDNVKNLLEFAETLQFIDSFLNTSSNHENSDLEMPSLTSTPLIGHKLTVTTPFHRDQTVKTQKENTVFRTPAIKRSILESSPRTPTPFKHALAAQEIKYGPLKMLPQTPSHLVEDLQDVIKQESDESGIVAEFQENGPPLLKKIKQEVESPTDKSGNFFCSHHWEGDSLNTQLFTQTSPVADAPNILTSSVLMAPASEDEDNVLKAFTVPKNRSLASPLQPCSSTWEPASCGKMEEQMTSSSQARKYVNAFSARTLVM

biological target: Transcriptional activator Myb (Homo sapiens) (UniProt P10242); assay: ATG_Myb_CIS: Attagene CIS-FACTORIAL HepG2 Assay for human Myeloblastosis (Myb) Proto-Oncogene Transcription Factor (AID 2282986); settings: HepG2 Attagene CIS-FACTORIAL Myb reporter transcription; actives raise or lower the signal
Method: ATG_CIS is a cell-based, multiplexed-readout assay that uses HepG2, a human liver cell line, with measurements taken at 24 hours after chemical dosing in a 24-well plate.ATG_Myb_CIS is one of 52 assay component(s) measured or calculated from the ATG_CIS assay. It is designed to make measurements of mRNA induction, a form of inducible reporter, as detected with fluorescence intensity signals by Reverse transcription polymerase chain reaction (RT-PCR) and Capillary electrophoresis technology.Data from the assay component ATG_Myb_CIS was analyzed into 1 assay endpoint. This assay endpoint, ATG_Myb_CIS, was analyzed with bidirectional fitting relative to DMSO as the negative control and baseline of activity. Using a type of inducible reporter, measures of mRNA for gain or loss-of-signal activity can be used to understand the reporter gene at the transcription factor-level as they relate to the gene MYB. Furthermore, this assay endpoint can be referred to as a primary readout, because this assay has produced multiple assay endpoints where this one serves a reporter gene function. To generalize the intended target to other relatable targets, this assay endpoint is annotated to the dna binding intended target family, where the subfamily is MYB proteins.
Human liver HepG2 cells are transiently transfected with multiple reporter transcription units (MRTUs) in 6-well plates using FuGene 6 reagent (Roche; 3 ml FuGene/1 mg DNA). The MRTU constructs are regulated by a cis-regulating element (promoter). […] A major difference between the CIS and TRANS system is that in CIS activities of endogenous TFs are measured, whereas the TRANS assay evaluates changes in activities of exogenous, chimeric NR-Gal4 proteins. […] At the end of 24 hour incubation, total RNA was isolated using TriZol reagent (Invitrogen). The isolated RNA is then reverse-transcribed using oligo(dT) primer and Mo-MLV reverse transcriptase (Invitrogen) with DNAse I (Ambion) treatment for 30 min. The one-tenth of the produced cDNA was amplified by PCR using Taq DNA polymerase (Invitrogen) and two reporter sequence-specific primers. The PCR products were fluorescently labeled by primer extension with 6-arboxyfluorescein (6-FAM) 5'-labeled reporter sequence-specific primer (2 min at 95 C, 20 s at 68 C and 10 min at 72 C) and these products were digested with 5U of HpaI (New England Biolabs) for 2h at 37 C. The fragments were purified using Qiaquick PCR columns (Qiagen), analyzed on an ABI 3130xL genetic analyzer (Applied Biosystems) with peak positions identified by using a set of X-rhodamine (ROX)-labeled MapMarker1000 molecular weight standards (BioVentures). The raw capillary electrophoresis data was processed using Attagraph software (Attagene).

Row | SMILES | outcome
1 | Cc1ccc([N+](=O)[O-])c([N+](=O)[O-])c1 | inactive
2 | O=[N+]([O-])OCC(CO[N+](=O)[O-])(CO[N+](=O)[O-])CO[N+](=O)[O-] | inactive
3 | N#CBr | inactive
4 | Cc1c([N+](=O)[O-])cccc1[N+](=O)[O-] | inactive
5 | CC(C)OP(C)(=O)OC(C)C | inactive
6 | Cc1ccc([N+](=O)[O-])cc1[N+](=O)[O-] | inactive
7 | CC(C)N(CCO)C(C)C | inactive
8 | CN(C)CCCl | inactive
9 | Cc1cccc([N+](=O)[O-])c1[N+](=O)[O-] | inactive
10 | O=[N+]([O-])c1cccc([N+](=O)[O-])c1 | inactive
11 | COc1ccc([N+](=O)[O-])cc1[N+](=O)[O-] | inactive
12 | COP(C)(=O)OC | inactive
